The results in this text go back to PMC2653189 (PLoS ONE, 2009).

By UniProt entry, the sequences of proteins in these tests, tags left out.
UniProt P40763, whole entry, species assumed: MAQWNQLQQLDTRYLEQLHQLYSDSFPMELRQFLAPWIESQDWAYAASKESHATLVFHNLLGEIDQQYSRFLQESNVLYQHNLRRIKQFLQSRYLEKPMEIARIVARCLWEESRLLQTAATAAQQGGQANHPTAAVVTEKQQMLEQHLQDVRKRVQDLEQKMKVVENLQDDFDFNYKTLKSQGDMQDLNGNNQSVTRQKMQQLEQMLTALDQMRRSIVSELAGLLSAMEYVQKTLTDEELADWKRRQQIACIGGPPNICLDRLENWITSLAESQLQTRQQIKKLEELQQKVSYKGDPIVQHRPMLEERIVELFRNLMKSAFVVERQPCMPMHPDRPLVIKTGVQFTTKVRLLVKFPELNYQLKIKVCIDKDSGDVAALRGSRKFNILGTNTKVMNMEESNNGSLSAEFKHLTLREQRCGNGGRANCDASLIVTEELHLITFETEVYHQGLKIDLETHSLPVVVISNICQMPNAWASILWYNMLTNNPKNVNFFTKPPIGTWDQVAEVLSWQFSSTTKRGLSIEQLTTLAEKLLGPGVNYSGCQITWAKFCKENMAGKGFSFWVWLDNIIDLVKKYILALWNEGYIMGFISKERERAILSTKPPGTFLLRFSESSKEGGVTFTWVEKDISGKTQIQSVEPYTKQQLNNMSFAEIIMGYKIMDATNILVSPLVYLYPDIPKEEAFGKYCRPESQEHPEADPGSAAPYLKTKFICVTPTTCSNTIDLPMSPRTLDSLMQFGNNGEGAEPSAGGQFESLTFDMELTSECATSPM

This test addresses Stat3 (Homo sapiens, UniProt P40763). Description: Stat3/pY-peptide binding assay (SPR, BIAcore). The settings on record: recombinant Stat3 500 nM; immobilized EGFR Y1068 phosphododecapeptide; 25°C; read-out: SPR IC50, inhibition of Stat3 binding to pY peptide ligand. The procedure:
A control (Stat3 with DMSO but without compound) was run at the beginning and the end of each cycle (40 sample injections) to ensure that the integrity of the sensor chip was maintained throughout the cycle run. The average of the two controls was normalized to 100% and used to evaluate the effect of each compound on Stat3 binding. Responses were normalized by dividing the value at 2 min by the response obtained in the absence of compounds at 2 min and multiplying by 100.
Take `COC(=O)Cc1c(C)c2ccc(OCc3ccc(C(=O)OC)cc3)c(C)c2oc1=O` [Cpd3-7, methyl 4-({[3-(2-methoxy-2-oxoethyl)-4,8-dimethyl-2-oxo-2H-chromen-7-yl]oxy}methyl)benzoate]: the IC50 was 137 µM.

As to `O=C(O)CSc1cc(NS(=O)(=O)c2ccc(C(=O)O)cc2)c2ccccc2c1O` [Cpd188, 4-[({3-[(carboxymethyl)thio]-4-hydroxy-1-naphthyl}amino)sulfonyl]benzoic acid], the IC50 worked out at 20 µM. Regarding `CCN1C(=O)C(=Cc2ccc(-c3ccc(C(=O)O)cc3)o2)SC1=S` [Cpd30, 4-{5-[(3-ethyl-4-oxo-2-thioxo-1,3-thiazolidin-5-ylidene)methyl]-2-furyl}benzoic acid], the IC50 worked out at 30 µM.
